Measured values from ChEMBL document CHEMBL1926677, “Further structure-activity relationship studies on 8-substituted-3-[2-(diarylmethoxyethylidenyl)]-8-azabicyclo[3.2.1]octane derivatives at monoamine transporters” (Bioorg Med Chem, 2011).

Protein sequences, listed by entry. Tags and fused reporters are not part of them.
UniProt P23977, whole entry: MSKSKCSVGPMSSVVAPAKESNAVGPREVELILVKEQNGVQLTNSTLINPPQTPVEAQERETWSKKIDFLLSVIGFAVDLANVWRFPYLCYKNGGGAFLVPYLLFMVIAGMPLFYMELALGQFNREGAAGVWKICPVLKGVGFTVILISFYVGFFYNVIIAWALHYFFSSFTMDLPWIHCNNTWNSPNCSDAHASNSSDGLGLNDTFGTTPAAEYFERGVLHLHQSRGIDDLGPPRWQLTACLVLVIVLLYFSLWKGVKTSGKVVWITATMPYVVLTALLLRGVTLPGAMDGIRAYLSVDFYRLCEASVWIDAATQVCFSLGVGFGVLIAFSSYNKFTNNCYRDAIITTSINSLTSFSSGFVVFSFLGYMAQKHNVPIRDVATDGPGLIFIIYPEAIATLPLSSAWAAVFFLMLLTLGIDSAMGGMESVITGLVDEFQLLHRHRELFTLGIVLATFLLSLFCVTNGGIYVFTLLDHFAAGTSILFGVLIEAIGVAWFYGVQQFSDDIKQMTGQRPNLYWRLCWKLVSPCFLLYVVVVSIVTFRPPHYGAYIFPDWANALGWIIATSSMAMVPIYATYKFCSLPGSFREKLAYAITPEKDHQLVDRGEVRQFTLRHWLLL

Columns and labels:
[1] = biological target: Sodium-dependent dopamine transporter (Rattus norvegicus, UniProt P23977); experiment: Displacement of [3H]WIN35428 from DAT in Sprague-Dawley rat brain homogenates after 1 hr by scintillation counting; format: tissue-based
Method in brief: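 Male Sprague-Dawley rats (200–250 g); caudate-putamen homogenised in ice-cold modified Krebs-HEPES buffer pH 7.4, washed by repeated 20,000 × g spins; fresh membranes ~0.3% w/v (150–300 µg protein). Nonspecific: 100 µM cocaine.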

Rattus norvegicus = species on record: Rattus norvegicus; experiment: Selectivity ratio of Ki for SERT in Sprague-Dawley rat brain homogenates to Ki for DAT in Sprague-Dawley rat brain homogenates; format: tissue-based
[2] = Selectivity ratio of DAT over SERT

Fc1ccc(C(OC/C=C2\C[C@H]3CC[C@@H](C2)N3Cc2ccccc2)c2ccc(F)cc2)cc1
Ki [1]: 7.9 nM
Ratio Ki (Rattus norvegicus): 281
Ratio [2]: 300
